Values quoted from earlier work in US20230241164A1, “C-Type Natriuretic Peptides and Methods Thereof in Treating Cancer” (PHARMAIN CORPORATION, priority 2020, published 2023).

Details: as the dose increases to the desired therapeutic level; cited from earlier work

## PGQEHPNARKYKGANKKGLSKGCFGLKLDRIGSMSGLGC [BMN-111]
  arterial blood pressure (BP): drops
  heart rate (HR): increases
